Values quoted from earlier work, collected in US20140194479A1 (published 2014).

Test system: 5-HT uptake
Details: McEwen et al., 2010, Mennini et al., 1987; cited from earlier work

CN1c2ccccc2C(NCCCCCCC(=O)O)c2ccc(Cl)cc2S1(=O)=O (stereo not shown) [tianeptine]
Vmax of 5-HT uptake: increases
